For one experiment, the target named is recombinant human MMP-1 (Homo sapiens, UniProt P03956). To be noted: read-out: MMP-1 IC50, Inhibition Table B.
The target of a further experiment is recombinant human MMP-2 (Homo sapiens, UniProt P08253). To be noted: read-out: MMP-2 IC50, Inhibition Table B.
The next experiment has as its target recombinant human MMP-13 (Homo sapiens, UniProt P45452). Put plainly: In vitro metalloprotease inhibition, fluorogenic MCA peptide substrate, MMP-13. Type of experiment: biochemical. The following applies: read-out: MMP-13 IC50, Inhibition Table B.

Chains of the proteins cited; added tags and fusions are not shown. Residues count along the entry.
UniProt P03956, 100-469 limits assumed: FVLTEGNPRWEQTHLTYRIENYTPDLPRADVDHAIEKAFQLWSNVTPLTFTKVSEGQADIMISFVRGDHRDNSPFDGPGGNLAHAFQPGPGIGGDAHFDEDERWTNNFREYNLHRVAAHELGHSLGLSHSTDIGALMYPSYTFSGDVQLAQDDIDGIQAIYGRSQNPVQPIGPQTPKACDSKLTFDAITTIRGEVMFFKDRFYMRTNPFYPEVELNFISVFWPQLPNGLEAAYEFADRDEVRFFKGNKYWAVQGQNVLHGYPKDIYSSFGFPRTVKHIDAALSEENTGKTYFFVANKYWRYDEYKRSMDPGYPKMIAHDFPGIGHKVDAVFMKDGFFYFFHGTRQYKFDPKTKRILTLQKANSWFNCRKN
UniProt P08253, 110-660 limits assumed: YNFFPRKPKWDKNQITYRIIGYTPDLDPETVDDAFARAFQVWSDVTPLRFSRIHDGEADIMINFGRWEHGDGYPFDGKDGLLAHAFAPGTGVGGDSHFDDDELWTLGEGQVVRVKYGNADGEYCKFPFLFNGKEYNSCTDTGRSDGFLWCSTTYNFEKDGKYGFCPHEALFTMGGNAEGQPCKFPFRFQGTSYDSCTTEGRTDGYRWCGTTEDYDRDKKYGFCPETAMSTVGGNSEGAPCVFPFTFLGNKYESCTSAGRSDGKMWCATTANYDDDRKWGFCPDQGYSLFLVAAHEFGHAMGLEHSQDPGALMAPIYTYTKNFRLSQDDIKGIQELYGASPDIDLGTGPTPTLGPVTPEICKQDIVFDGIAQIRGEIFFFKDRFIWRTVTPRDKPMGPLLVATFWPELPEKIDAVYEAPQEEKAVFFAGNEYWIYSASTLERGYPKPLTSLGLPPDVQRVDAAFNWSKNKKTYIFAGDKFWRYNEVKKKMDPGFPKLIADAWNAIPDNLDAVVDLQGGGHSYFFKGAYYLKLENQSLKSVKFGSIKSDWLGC

The record followed here is US20060084688A1, “Aromatic sulfone hydroxamic acid metalloprotease inhibitor” (priority 1997, published 2006).

SMILES strings stand for the structures. Like-named read-outs stand apart in the source and are kept apart here.

The term IC50 denotes the concentration that gives 50% inhibition.

As for `COC(=O)[C@H](Cc1cnc[nH]1)NC(=O)C1CCCN(c2ccc(S(=O)(=O)C3(C(=O)NO)CCOCC3)cc2)C1` (stereo partly drawn), the IC50 at recombinant human MMP-1 (tested form: TFA) was above 10000 nM; on recombinant human MMP-2 (tested form: TFA), above 100 nM; on recombinant human MMP-13 (tested form: TFA) it was above 100 nM.
As for `Cc1ccc(-c2ccc(S(=O)(=O)C3(C(=O)NO)CCOCC3)cc2)cc1`, the IC50 at recombinant human MMP-1 is 600 nM; on recombinant human MMP-2 it was below 1 nM; on recombinant human MMP-13 it was below 1 nM.
Consider `COC(=O)[C@H](Cc1cnc[nH]1)NC(=O)C1CCN(c2ccc(S(=O)(=O)C3(C(=O)NO)CCOCC3)cc2)CC1`, for which the IC50 on recombinant human MMP-1 (tested form: TFA) was above 10000 nM; on recombinant human MMP-2 (tested form: TFA) it was 445 nM; on recombinant human MMP-13 (tested form: TFA), 40 nM.
Consider `O=C(NO)C1(S(=O)(=O)c2ccc(-c3ccc(F)cc3)cc2)CCOCC1`, for which the half-maximal inhibitory concentration (IC50) on recombinant human MMP-1 was 145 nM; on recombinant human MMP-2, below 1 nM; on recombinant human MMP-13 it was below 1 nM.
With `O=C(N1CCOCC1)N1CCN(c2ccc(S(=O)(=O)C3(C(=O)NO)CCOCC3)cc2)CC1`, the IC50 on recombinant human MMP-1 (tested form: TFA) is above 10000 nM; at recombinant human MMP-2 (tested form: TFA), 30.6 nM; at recombinant human MMP-13 (tested form: TFA), 28 nM.
